# Measurements from PubChem BioAssay AID2417 (National Center for Advancing Translational Sciences (NCATS), 2010).
# Only a part is listed here, and it is no random draw. Inconclusive results are not listed. Calls of active or inactive are those of the source.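 The calls were made as follows: active = readout at or below -70, meaning at least 70% loss of cells showing the perinucleolar compartment, a nuclear body marking cancer cells; inconclusive = readout between -30 and a set limit; inactive = the rest.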
# Test: High Content Assay for Compounds that inhibit the Assembly of the Perinucleolar Compartment;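 also: plate controls were DMSO wells for no effect and camptothecin positive control wells for full effect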
# Details: PC3M PTB-GFP, PNC prevalence imaging, 16 h; at 10 µM; hits give low values
# Excerpt: High Content Assay for Compounds that inhibit the Assembly of the Perinucleolar Compartment NIH Chemical Genomics Center [NCGC] NIH Molecular Libraries Probe Centers Network [MLPCN] MLPCN Grant: MH082371-01A2 Assay Submitter (PI): Sui Huang, Northwestern University, Feinberg School of Medicine, Cell and Molecular Biology, Chicago, Illinois. The perinucleolar compartment (PNC) is a non-membrane-bound nuclear subdomain that is associated with but structurally distinct from the nucleolus. The PNC is a heritable trait, in which the number of PNCs per cell in daughter cells often mimics that of their mother cells. The PNC is heterogeneous in shape, is stable through interphase, disassembles during mitosis, and reassembles in early G1. The PNC is concentrated with newly synthesized RNA polymerase III (pol III) RNAs (MRP RNA, RNAse P H1 RNA, hY RNAs[hY1, 2, 5], Alu RNA, and SRP [7SL] RNA) and RNA binding proteins (nucleolin, PTB, CUG-BP, KSRP, Raver1, Raver2, and Rod). […] Extensive in vitro studies have shown that the PNC is unique to tumor cells and preferentially forms in tumor cells derived from solid tissues. Examination of cancer cell lines from various origins and malignant capacities has shown that PNC prevalence correlates with the malignancy of tumors and has the potential to be developed as a pan-cancer prognostic marker. […] Although the PNC is associated with a DNA locus and a handful of components have been identified, much remains to be investigated regarding the structure and function of the PNC and its mechanistic link to cancer. We have previously shown that PNC prevalence reduction is a valid strategy to identify compounds that can be used to study the structure and function of the PNC. It is necessary, however, to create a screening platform that is able to test a large number of compounds in an automated fashion. Here we report the development and robustness of an automated whole-cell phenotypic image-based screening assay that is capable of identifying such compounds.
# PNC High Content Imaging Assay Procedure: 1. Cells at a density of 75-90% confluency in T175 flasks were harvested using 7 ml TrypLE Express cell dissociation reagent. After dissociation (5 minutes room temperature incubation) 10 ml of complete media was added to the TrypLE/cell suspension. The liquid was transferred to a 50 ml Conical tube and cells were pelleted at 1000 RPM for 5 min. Supernatant was removed and cells were resuspended to a final density of 150-200 cells/ul in complete media. 2. Cells were plated in 5 ul volume (750-1000 cells/well) into 1536 well Black uclear Aurora Low Base plates and allowed to recover and adhere at 37 C in a humidified 5% CO2 incubator for 4 hours. 3. After 4 hour incubation, compound libraries (23 nl of […] in columns 5-48) were transferred to the plates in duplicate using a 1536 well pintool. Camptothecin positive control (59 uM final) was added to column 2 and 1:3 dilutions of camptothecin was added to column 3. DMSO negative controls were present in columns 1 and 4. 4. After a 16 hour incubation in the 37 C incubator, cells were fixed by the addition of 4 ul of 6% EM grade paraformaldehyde (containing 0.1% triton X 100) directly to the cells. The plates were incubated at room temperature for 20 minutes. The liquid was removed using a 32 channel Kalypsys aspirator and the fixed cells were washed twice with 5 ul PBS followed by a final addition of 5 ul PBS containing 1 ug/ml Hoechst 33342. 5. Fixed plates were sealed and sotred at 4C until imaged. 6. Plates were imaged on an InCell 1000 automated microscope using a 20 x objective, a standard FITC filter set, no camera binning, and an exposure time of ~100-150 msec/well. 7. Data analysis. PNC prevalence was determined using the Multitarget analysis module from InCell Workstation software (V3.5 ) and analysis was run on a quad core workstation using the Incell Developer Toolbox (V1.7). […]
row,Structure (SMILES),"activity change (PNC), negative = inhibition"
1,Cc1cc(C)cc(OP(C)(=O)Nc2ccc(C)cc2C)c1 (stereo not given),inactive: -12%
2,CCOC(=O)c1ccc(NP(C)(=O)Oc2cc(C)cc(C)c2)cc1 (stereo not given),inactive: -4.15%
3,Cc1cc(C)cc(OP(C)(=O)Nc2ccccn2)c1 (stereo not given),inactive: -27.4%
4,Cc1ccc(C)c(NP(C)(=O)Oc2ccccc2)c1 (stereo not given),inactive: -4.91%
5,CN1CCCCC1COC(=O)C1(O)c2ccccc2CCc2ccccc21 (stereo not given),inactive: 61.9%
6,COc1ccccc1OP(C)(=O)Nc1c(C)cccc1C (stereo not given),inactive: -2.16%
7,Cc1nc2ccc3ccccc3c2s1.O=[N+]([O-])c1cc([N+](=O)[O-])c(O)c([N+](=O)[O-])c1,inactive: 3.22%
8,Cc1cccc(C)c1OP(C)(=O)Nc1ccc(SC(F)(F)F)cc1 (stereo not given),inactive: 12.2%
9,CCOP(C)(=S)SCC(=O)NC(C)C(=O)O (stereo not given),inactive: -6.25%
10,CCOC(=O)c1ccc(NP(C)(=O)Oc2ccc(OC)cc2)cc1 (stereo not given),inactive: -22.4%
11,CP(=O)(Nc1ccccn1)Oc1ccc(Cl)cc1 (stereo not given),inactive: -8.43%
12,CP(=S)(Nn1cnnc1)Oc1ccccc1 (stereo not given),inactive: 10.5%
13,CP(=O)(Nc1ccccc1Br)Oc1ccccc1 (stereo not given),inactive: -27.5%
14,CC(C)(C)c1ccc(OP(C)(=O)Nc2ccc(SC(F)(F)F)cc2)cc1 (stereo not given),inactive: 8.11%
15,COc1ccccc1OP(C)(=O)Nc1ccc(C)cc1 (stereo not given),inactive: -28.5%
16,COc1ccc(OP(C)(=O)Nc2cccc(F)c2)cc1 (stereo not given),inactive: 16.3%
17,CN(C)CCOC(=O)C(O)(c1ccccc1)C1CCCC1 (stereo not given),inactive: 5.97%
18,COc1ccc(OP(C)(=O)Nc2ccccn2)cc1 (stereo not given),inactive: 25.2%

row,Structure (SMILES),"activity change (PNC), negative = inhibition"
1,Cc1c(NP(C)(=O)Oc2ccc(C(C)C)cc2)c(=O)n(-c2ccccc2)n1C (stereo not given),inactive: 55.2%
2,CCc1ccc(OP(C)(=O)O)cc1,inactive: 54.8%
3,COc1ccccc1OP(C)(=O)Nc1ccc(C)cc1C (stereo not given),inactive: -23.7%
4,COc1ccccc1OP(C)(=O)Nc1ccc(C)c(C)c1 (stereo not given),inactive: 26.2%
5,Cc1nc2ccc3ccccc3c2o1.O=[N+]([O-])c1cc([N+](=O)[O-])c(O)c([N+](=O)[O-])c1,inactive: 34.1%
6,CCOC(=O)c1ccc(NP(C)(=O)Oc2ccc(Cl)cc2)cc1 (stereo not given),inactive: -26.5%
7,CP(=O)(Oc1ccccc1)N1CCOC1=O (stereo not given),inactive: 42.2%
8,COc1ccccc1OP(C)(=O)Nc1c(C)n(C)n(-c2ccccc2)c1=O (stereo not given),inactive: 30.1%
9,CP(=O)(Nc1ccc(Cl)cc1)Oc1ccc(F)cc1 (stereo not given),inactive: 12.2%
10,CC(C)(C)c1ccc(OP(C)(=O)O)cc1,inactive: 19.4%
11,Cc1ccccc1NP(C)(=O)Nc1ccccc1C,inactive: -19.3%
12,CCOC(=O)c1ccc(NP(C)(=O)Oc2ccc(F)cc2)cc1 (stereo not given),inactive: -5.98%
13,CCN(CC)CCCOC(=O)C(O)(c1ccccc1)C1CCCCC1 (stereo not given),inactive: 28.5%
14,CP(=O)(Nc1ccccc1)Oc1ccc(F)cc1 (stereo not given),inactive: 58.9%
15,CC(C)c1ccc(OP(C)(=O)Nc2ccc(SC(F)(F)F)cc2)cc1 (stereo not given),inactive: -29.2%
16,CP(=O)(Nc1ccccc1F)Oc1ccccc1 (stereo not given),inactive: 6.62%
17,O=C(OCCN1CCN(CCOCc2ccccc2)CC1)C(O)(c1ccccc1)c1ccccc1,inactive: 45%
